{
  "source": "paper PMC3190642",
  "about": "(Biochemistry, 2011)",
  "molecules": {"B1": {"name": "E1o (Escherichia coli K-12) (protein)", "chain": "MQNSALKAWLDSSYLSGANQSWIEQLYEDFLTDPDSVDANWRSTFQQLPGTGVKPDQFHSQTREYFRRLAKDASRYSSTISDPDTNVKQVKVLQLINAYRFRGHQHANLDPLGLWQQDKVADLDPSFHDLTEADFQETFNVGSFASGKETMKLGELLEALKQTYCGPIGAEYMHITSTEEKRWIQQRIESGRATFNSEEKKRFLSELTAAEGLERYLGAKFPGAKRFSLEGGDALIPMLKEMIRHAGNSGTREVVLGMAHRGRLNVLVNVLGKKPQDLFDEFAGKHKEHLGTGDVKYHMGFSSDFQTDGGLVHLALAFNPSHLEIVSPVVIGSVRARLDRLDEPSSNKVLPITIHGDAAVTGQGVVQETLNMSKARGYEVGGTVRIVINNQVGFTTSNPLDARSTPYCTDIGKMVQAPIFHVNADDPEAVAFVTRLALDFRNTFKRDVFIDLVCYRRHGHNEADEPSATQPLMYQKIKKHPTPRKIYADKLEQEKVATLEDATEMVNLYRDALDAGDCVVAEWRPMNMHSFTWSPYLNHEWDEEYPNKVEMKRLQELAKRISTVPEAVEMQSRVAKIYGDRQAMAAGEKLFDWGGAENLAYATLVDEGIPVRLSGEDSGRGTFFHRHAVIHNQSNGSTYTPLQHIHNGQGAFRVWDSVLSEEAVLAFEYGYATAEPRTLTIWEAQFGDFANGAQVVIDQFISSGEQKWGRMCGLVMLLPHGYEGQGPEHSSARLERYLQLCAEQNMQVCVPSTPAQVYHMLRRQALRGMRRPLVVMSPKSLLRHPLAVSSLEELANGTFLPAIGEIDELDPKGVKRVVMCSGKVYYDLLEQRRKNNQHDVAIVRIEQLYPFPHKAMQEVLQQFAHVKDFVWCQEEPLNQGAWYCSQHHFREVIPFGASLRYAGRPASASPAVGYMSVHQKQQQDLVNDALNVE"}, "B2": {"name": "E1o (Escherichia coli K-12; H298L) (protein)", "chain": "B1 chain with H298L"}, "B3": {"name": "E1o (Escherichia coli K-12; H298T) (protein)", "chain": "B1 chain with H298T"}, "B4": {"name": "E1o (Escherichia coli K-12; H298D) (protein)", "chain": "B1 chain with H298D"}, "B5": {"name": "E1o (Escherichia coli K-12; H298V) (protein)", "chain": "B1 chain with H298V"}, "B6": {"name": "E1o (Escherichia coli K-12; H260E/H298N) (protein)", "chain": "B1 chain with H260E, H298N"}, "B7": {"name": "E1o (Escherichia coli K-12; H260E) (protein)", "chain": "B1 chain with H260E"}},
  "key": {"E1o [1]": {"target": "E1o (Escherichia coli, UniProt P0AFG3)", "test": "biochemical"}, "E1o [2]": {"target": "E1o (Escherichia coli, UniProt P0AFG3, H298D)", "test": "biochemical"}, "purified protein [3]": {"substrate": "CCCC(=O)C(=O)O", "test": "purified protein", "conditions": "DCPIP as electron acceptor"}, "purified protein [4]": {"substrate": "O=C(O)CCC(=O)C(=O)O", "test": "purified protein", "conditions": "DCPIP as electron acceptor"}},
  "note": "Where a chain is given by its changes, count along the chain named. Numbers in names are those of the source.",
  "data": [
    {"molecule": "CCC(=O)[PH](=O)O", "note": "[PP^−]", "values": [
      {"measurement": "Kd", "setting": "E1o [1]", "result": 39, "unit": "µM"},
      {"measurement": "Kd", "setting": "E1o [2]", "result": 9.6, "unit": "µM"}
    ]},
    {"molecule": "CC(=O)[PH](=O)O", "note": "[AcP^−]", "values": [
      {"measurement": "Kd", "setting": "E1o [1]", "result": 320, "unit": "µM"}
    ]},
    {"molecule": "COP(=O)(O)C(=O)CCC(=O)O", "note": "[SPME^−]", "values": [
      {"measurement": "Kd", "setting": "E1o [1]", "result": 10, "unit": "µM"}
    ]},
    {"molecule": "B1", "values": [
      {"measurement": "Km", "setting": "purified protein [3]", "result": "16.3 ± 4.00", "unit": "mM"},
      {"measurement": "kcat", "setting": "purified protein [3]", "result": 0.076, "unit": "s⁻¹"},
      {"measurement": "kcat/Km", "setting": "purified protein [3]", "result": 4.7, "unit": "M⁻¹ s⁻¹"},
      {"measurement": "Km", "setting": "purified protein [4]", "result": "2.61 ± 0.376 × 10^-3 mM"},
      {"measurement": "kcat", "setting": "purified protein [4]", "result": 2.15, "unit": "s⁻¹"},
      {"measurement": "kcat/Km", "setting": "purified protein [4]", "result": 824000, "unit": "M⁻¹ s⁻¹"}
    ]},
    {"molecule": "B2", "values": [
      {"measurement": "Km", "setting": "purified protein [3]", "result": "6.30 ± 0.64", "unit": "mM"},
      {"measurement": "kcat", "setting": "purified protein [3]", "result": 0.094, "unit": "s⁻¹"},
      {"measurement": "kcat/Km", "setting": "purified protein [3]", "result": 15, "unit": "M⁻¹ s⁻¹"},
      {"measurement": "Km", "setting": "purified protein [4]", "result": "3.41 ± 0.237 × 10^-3 mM"},
      {"measurement": "kcat", "setting": "purified protein [4]", "result": 0.415, "unit": "s⁻¹"},
      {"measurement": "kcat/Km", "setting": "purified protein [4]", "result": 122000, "unit": "M⁻¹ s⁻¹"}
    ]},
    {"molecule": "B3", "values": [
      {"measurement": "Km", "setting": "purified protein [3]", "result": "15.3 ± 1.00", "unit": "mM"},
      {"measurement": "kcat", "setting": "purified protein [3]", "result": 0.03, "unit": "s⁻¹"},
      {"measurement": "kcat/Km", "setting": "purified protein [3]", "result": 2, "unit": "M⁻¹ s⁻¹"},
      {"measurement": "Km", "setting": "purified protein [4]", "result": "4.25 ± 0.160 × 10^-3 mM"},
      {"measurement": "kcat", "setting": "purified protein [4]", "result": 0.0064, "unit": "s⁻¹"},
      {"measurement": "kcat/Km", "setting": "purified protein [4]", "result": 1500, "unit": "M⁻¹ s⁻¹"}
    ]},
    {"molecule": "B4", "values": [
      {"measurement": "Km", "setting": "purified protein [3]", "result": "7.02 ± 0.023", "unit": "mM"},
      {"measurement": "kcat", "setting": "purified protein [3]", "result": 1.24, "unit": "s⁻¹"},
      {"measurement": "kcat/Km", "setting": "purified protein [3]", "result": 180, "unit": "M⁻¹ s⁻¹"}
    ]},
    {"molecule": "B5", "values": [
      {"measurement": "Km", "setting": "purified protein [3]", "result": "8.96 ± 0.005", "unit": "mM"},
      {"measurement": "kcat", "setting": "purified protein [3]", "result": 0.556, "unit": "s⁻¹"},
      {"measurement": "kcat/Km", "setting": "purified protein [3]", "result": 62, "unit": "M⁻¹ s⁻¹"},
      {"measurement": "Km", "setting": "purified protein [4]", "result": "165 ± 6 × 10^-3 mM"},
      {"measurement": "kcat", "setting": "purified protein [4]", "result": 0.099, "unit": "s⁻¹"},
      {"measurement": "kcat/Km", "setting": "purified protein [4]", "result": 600, "unit": "M⁻¹ s⁻¹"}
    ]},
    {"molecule": "B6", "values": [
      {"measurement": "Km", "setting": "purified protein [4]", "result": "2.73 ± 0.469 × 10^-3 mM"},
      {"measurement": "kcat", "setting": "purified protein [4]", "result": 0.134, "unit": "s⁻¹"},
      {"measurement": "kcat/Km", "setting": "purified protein [4]", "result": 49100, "unit": "M⁻¹ s⁻¹"}
    ]},
    {"molecule": "B7", "values": [
      {"measurement": "Km", "setting": "purified protein [4]", "result": "383 ± 35.5 × 10^-3 mM"}
    ]}
  ]
}
